Experimental data taken from patent US7560482B2, “Inhibitors of plasmepsins” (The Johns Hopkins University, priority 2001, dated 2009).
pKi: −log10 of the molar value.

The chains behind the UniProt entries cited, without tags or fusion partners. Residues count along the entry.
UniProt P07339, 65-412 limits assumed: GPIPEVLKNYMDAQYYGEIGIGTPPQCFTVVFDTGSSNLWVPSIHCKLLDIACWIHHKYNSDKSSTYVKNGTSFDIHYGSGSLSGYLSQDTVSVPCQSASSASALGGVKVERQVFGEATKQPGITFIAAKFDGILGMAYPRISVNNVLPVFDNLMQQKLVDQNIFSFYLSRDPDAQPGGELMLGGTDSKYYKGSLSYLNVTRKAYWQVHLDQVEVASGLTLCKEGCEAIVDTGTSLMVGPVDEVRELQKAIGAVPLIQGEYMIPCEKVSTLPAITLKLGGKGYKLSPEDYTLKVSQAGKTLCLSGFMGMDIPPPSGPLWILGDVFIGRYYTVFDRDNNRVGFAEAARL

Target: human Cathepsin D (Homo sapiens, UniProt P07339)
Assay: Cathepsin D inhibition assay, hydrolysis of chromogenic substrate
Details: read-out: Ki CatD; 25° C., 10 mM sodium formate, 2% DMSO, pH 4.0; fit to competitive inhibition
Experimental: The specific activity of plasmepsin II from Plasmodium falciparum (Plm II) cloned in and purified from Escherchia coli and commercially available human Cathepsin D were measured by following the hydrolysis of the chromogenic substrate Ala-Leu-Glu-Arg-Thr-nPhe-Phe-Ser-Phe-Pro-Thr-OH (California Peptide Research Inc., Napa, Calif.). The decrease in absorbance upon hydrolysis is monitored at 300 nm. Typical Plasmepsin II preparations hydrolyze chromogenic substrate at 4-5 s^−1 at 37° C. The inhibition assays were performed at 25° C. in 10 mM sodium formate, 2% DMSO, pH 4.0. These pH conditions mimic the conditions in the food vacuole of the parasite. Under the conditions of the assays the Km for plasmepsin II is 20 μM and for human Cathepsin D is 130 μM. Inhibition constants (Ki) for the inhibitors are obtained at the desired temperature and solvent conditions by measuring the rate of substrate hydrolysis at increasing amounts of inhibitors. Exemplary results from three compounds (KNI-10033, KNI-10030 and KNI-10006) are shown in FIG. 7A-C, and the results obtained with all KNI compounds tested are given in Table 1.

SMILES | pKi
C[C@@H](O)[C@H](NC(=O)COc1cccc2cnccc12)C(=O)N[C@@H](Cc1ccccc1)[C@H](O)C(=O)N1CSC(C)(C)[C@H]1C(=O)NC(C)(C)C | 4.42
Cc1c(O)cccc1C(=O)N[C@@H](Cc1ccccc1)[C@H](O)C(=O)N1CSC[C@H]1C(=O)NC(C)(C)C | 4.42
